# Measurements taken from BindingDB's records for 3965704.
# Amino acid sequences for entries named in this document (tags omitted). Residues count along the entry.
# UniProt P37136, 32-614 limits assumed: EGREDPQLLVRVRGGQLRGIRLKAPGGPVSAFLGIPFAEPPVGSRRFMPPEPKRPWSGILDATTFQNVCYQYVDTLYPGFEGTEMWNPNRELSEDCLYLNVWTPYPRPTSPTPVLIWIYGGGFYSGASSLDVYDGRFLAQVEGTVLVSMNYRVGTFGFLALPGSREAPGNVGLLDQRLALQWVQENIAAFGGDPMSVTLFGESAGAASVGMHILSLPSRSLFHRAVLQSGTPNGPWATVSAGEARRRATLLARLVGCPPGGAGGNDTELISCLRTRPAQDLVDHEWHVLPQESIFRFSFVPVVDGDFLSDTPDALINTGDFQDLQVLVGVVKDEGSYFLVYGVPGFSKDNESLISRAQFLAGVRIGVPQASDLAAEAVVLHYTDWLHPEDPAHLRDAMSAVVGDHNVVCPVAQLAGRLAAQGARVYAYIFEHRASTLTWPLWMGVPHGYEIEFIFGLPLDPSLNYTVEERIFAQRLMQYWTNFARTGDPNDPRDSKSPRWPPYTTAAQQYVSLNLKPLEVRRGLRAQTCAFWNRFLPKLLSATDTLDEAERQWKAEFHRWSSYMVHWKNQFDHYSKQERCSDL
# Target: Acetylcholinesterase (Rattus norvegicus, UniProt P37136)
# Assay: Effect on Acetylcholinesterase activity in rat brain homogenates
smiles,measurement,value
CC[N+](C)(CC)CC(=O)CCN1C(=O)CCC1=O,IC50,170 µM
